Common to all, as to assay type: cell-based
One assay concerns Daoy. Nature of the assay: brain tumor cell growth inhibition, Daoy. As to conditions: Homo sapiens, desmoplastic cerebellar medulloblastoma, read-out: IC50 (title: GI50). The method, then: (§1) These GI50s were determined using standard tumor growth inhibition assays, similar to those described in detail in this Example 7.
The next assay relates to SK-N-MC. Nature of the assay: brain tumor cell growth inhibition, SK-N-MC. As to conditions: Homo sapiens, neuroepithelioma, read-out: IC50 (title: GI50). As to the method:
as §1

The next assay has as its system SW1088. Nature of the assay: brain tumor cell growth inhibition, SW1088. The following applies: Homo sapiens; SW1088, astrocytoma; read-out: IC50 (title: GI50). As to the method:
as §1

In a further assay the test system is U87. Nature of the assay: brain tumor cell growth inhibition, U87. As to conditions: Homo sapiens, U-87 MG; U87, glioblastoma; astrocytoma; read-out: IC50 (title: GI50). The method, then: as §1

Molecules are shown by their SMILES.

Broadly, the IC50 is the concentration needed to halve the response being measured. For `Cc1nc(Nc2ncc(C(=O)Nc3c(C)cccc3Cl)s2)cc(N2CCN(CCO)CC2)n1` [Dasatinib, reference compound], the IC50 amounted to 2930 nM in the assay with Daoy, 5110 nM in the assay on SK-N-MC, 897 nM in the assay with SW1088 and 1590 nM in the assay with U87.

These data come from patent publication US10196357B2, “Biaryl compositions and methods for modulating a kinase cascade” (Athenex, Inc., priority 2007, dated 2019).
